System: KBM7 cells
Experiment: Viability/proliferation of wild type and ATPIF1 null KBM7 cells treated with mitochondrial poisons (7-AAD, FACS)
Format: cell-based, human
Excerpt: In order to identify potential drug targets for treatment of mitochondrial disorders, we decided to use inhibitors of oxidative phosphorylation (OXPHOS) to model mitochondrial diseases and search for genes, loss-of-function of which can confer resistance to mitochondrial dysfunction caused by the poison. To that end, we explored use of a screening platform based on gene inactivation in human cells using insertional mutagenesis that has recently been developed using the KBM7 CML cell line, which is haploid for all chromosomes except chromosome 8 (5). In this system, insertional mutagenesis is accomplished using a gene trap vector. […]
For the viability assays described in this Example and Example 2, 200,000 cells were used for each sample. Cells were treated with the desired concentration of drug and viability was assessed four days later using 7-AAD and FACS analysis.
Suspension cells were kept on ice, then spun at 4000 rpm for 5 minutes at 4° C. in a table-top microcentrifuge, supernatant aspirated, cells washed once with ice-cold PBS, resuspended in ice-cold PBS with 2 ug/mL 7-AAD viability dye, incubated for 5 minutes on ice, and analyzed by FACS. […] Viability was assessed by 7-AAD exclusion. […] For primary hepatocytes, 100,000 cells were seeded per well of a 24-well TPP plate (Light Labs), treated with antimycin, and then analyzed using CellTiter-Glo.

Substance: antimycin A
- control (unmutagenized) KBM7 cells killed (lethal): more than 99.99%
